Assay results reported in paper PMC7463734, “Identification and Validation of an Aspergillus nidulans Secondary Metabolite Derivative as an Inhibitor of the Musashi-RNA Interaction” (Cancers, 2020).

Chains of the proteins cited; added tags and fusions are not shown. Residues count along the entry.
UniProt O43347, 20-107 limits assumed: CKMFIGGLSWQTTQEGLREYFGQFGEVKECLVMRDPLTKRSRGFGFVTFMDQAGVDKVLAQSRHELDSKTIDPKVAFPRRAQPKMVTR

Biological target: RBD1 of MSI1 (Homo sapiens, UniProt O43347)
Assay: FP dose-response (competition) disrupting RBD1-Numb^FITC complex
Assay type: binding
Settings: for IC50: FP dose-response, RBD1 of MSI1; for Ki: calculated based on the Kd and the dose-response curves
Protocol: To further examine the initial hits, we tested compounds with similar scaffolds shown in Figure 3 and Figure S1 in an FP dose-response assay. […] We thus focused our further validation studies on Aza-9.
Figure 4 FP dose-response validation compounds binding to RBD1 of MSI1. Ki values were calculated based on the Kd and the dose-response curves. TEXT PRINTED IN THE PICTURE: Aza-7: IC50 [μM]: 7.1; Ki [μM]: 3.0 | Aza-8: IC50 [μM]: 4.0; Ki [μM]: 1.7 | Aza-9: IC50 [μM]: 2.8; Ki [μM]: 1.2 | Aza-10: IC50 [μM]: 7.5; Ki [μM]: 3.2 | Aza-11: IC50 [μM]: 3.9; Ki [μM]: 1.7 | Aza-12: IC50 [μM]: 6.3; Ki [μM]: 2.7 | Aza-13: IC50 [μM]: 4.5; Ki [μM]: 1.9 | Aza-14: IC50 [μM]: 11.6; Ki [μM]: 5.0 | Aza-15: IC50 [μM]: >20 | Aza-16: IC50 [μM]: 6.8; Ki [μM]: 2.9 | Aza-17: IC50 [μM]: >20
pET21a-GB1-RBD1 (MSI1-RBD1) plasmids encoding the Homo sapiens RNA binding domain 1 (RBD1, residues 20-107) of MSI1 were constructed with Mus musculus cDNAs under T7 promoter. MSI1-RBD1 proteins were expressed in Escherichia coli and purified, as previously described. Protein concentrations were determined using the Bradford assay (Bio-Rad, Hercules, CA, USA). Purification of MSI2-RBD1 protein was carried out according to the previous publication.
FP, SPR and NMR assays were carried out according to the previous publication. For computer modeling of Aza-9 to MSI1/2, the AutoDock4.2.6 program was used for predicting the binding mode. The NMR structure of MSI1-RBD1 in complex with RNA (PDB: 2RS2) and the NMR structure of apo MSI2-RBD1 (PDB: 6C8U) were used as the receptor structure. The MSI1 RBD1–RNA interface and corresponding site in MSI2-RBD1 was used as the starting point for the docking calculations. The initial three-dimensional model of the Aza-9 compound was generated using the BABEL program and was used as starting coordinates to define the ligand structure. For docking, a grid box of size 40 × 44 × 56 A with 0.375 A spacing was centered at residue F23 in MSI1-RBD1 (or F24 in MSI2-RBD1). A total of 200 docking runs were carried out using the Lamarckian genetic algorithm. The docked conformation with the lowest energy was selected as the final conformation.

| Compound | IC50 [µM] | Ki [µM] |
| --- | --- | --- |
| CCOC(=O)C=C1C2=COC(/C=C/C(C)=C/[C@@H](C)CC)=CC2=CC(=O)C1(C)O (some centres unmarked) | > 20 |  |
| CCOC(=O)C=C1C2=COC(/C=C/C(C)=C/[C@@H](C)CC)=CC2=C(Br)C(=O)C1(C)O (some centres unmarked) | 6.8 | 2.9 |
| CCOC(=O)C=C1C2=COC(/C=C/C(C)=C/[C@@H](C)CC)=CC2=C(I)C(=O)C1(C)O (some centres unmarked) | > 20 |  |
| CC[C@H](C)/C=C(C)/C=C/C1=CC2=C(I)C(=O)C(C)(OC(C)=O)C(=O)C2=CO1 (some centres unmarked) | 7.5 | 3.2 |
| CC[C@H](C)/C=C(C)/C=C/C1=CC2=C(I)C(=O)C(C)(O)C(=O)C2=CO1 (some centres unmarked) | 11.6 | 5 |
